Where a name gives a salt, the structure may show the parent alone.
Tested on: Gad1 H3K4me2 level in rat primary culture neurons
Test: Gad1 H3K4 methylation induction activity in rat primary culture neurons (ChIP, quantitative PCR)
Assay type: cell-based
Conditions: Neuron, 72 h, read-out: Gad1 H3K4me2 induction activity (%)

SMILES | activity at 10 µM [%]
O=C(NC1CCOCC1)c1csc([C@@H]2C[C@H]2NCC2CC2)c1 [Example 71, 5-((1R,2R)-2-((cyclopropylmethyl)amino)cyclopropyl)-N-(tetrahydro-2H-pyran-4-yl)thiophene-3-carboxamide hydrochloride] | 182
Cc1nnc(NC(=O)c2cc([C@@H]3C[C@H]3NCC3CC3)cs2)s1 [Example 82, 4-((1S,2R)-2-((cyclopropylmethyl)amino)cyclopropyl)-N-(5-methyl-1,3,4-thiadiazol-2-yl)thiophene-2-carboxamide dihydrochloride] | 115
Cc1nnc(NC(=O)c2cc([C@@H]3C[C@H]3NCC3CCOCC3)c(C)s2)s1 [Example 97, 5-methyl-N-(5-methyl-1,3,4-thiadiazol-2-yl)-4-((1S,2R)-2-((tetrahydro-2H-pyran-4-ylmethyl)amino)cyclopropyl)thiophene-2-carboxamide hydrochloride] | 184
Cc1nnc(NC(=O)c2cc([C@@H]3C[C@H]3NC3CCC3)c(C)s2)s1 [Example 99, 4-((1S,2R)-2-(cyclobutylamino)cyclopropyl)-5-methyl-N-(5-methyl-1,3,4-thiadiazol-2-yl)thiophene-2-carboxamide hydrochloride] | 146
Cc1sc(C(=O)Nc2cnn(C)c2)cc1[C@@H]1C[C@H]1NC1CCC1 [Example 123, 4-((1S,2R)-2-(cyclobutylamino)cyclopropyl)-5-methyl-N-(1-methyl-1H-pyrazol-4-yl)thiophene-2-carboxamide hydrochloride] | 143
